Reference: patent publication US8618111B2, “5-alkynyl-pyrimidines” (Boehringer Ingelheim International GmbH, priority 2010, dated 2013)

Experiments:
[1] = test system: PC3 (human prostate carcinoma cell line) cells; assay: PC3 proliferation test; settings: read-out: EC50 PC3, 3 days incubation, DNA dye fluorescence
[2] = molecular target: mTOR (Homo sapiens (Human), UniProt P42345); assay: mTOR kinase activity assay (phosphorylation status of mTOR substrate 4E-BP1; TR-FRET); settings: read-out: IC50 mTOR, GFP-4E-BP1 substrate, 8 μM ATP

## CCC1(O)CCN(c2ncnc(C)c2C#Cc2ccc(N)nc2)CC1
[1]
  EC50: 21 nM
[2]
  IC50: 4 nM
